Screens: PubChem, several laboratories
NR1D1 modulator = modulates human Rev-erb alpha binding to DNA | P20393 | Rev-erbα–FITC-DNA binding, fluorescence polarization, 90 min | activity, % at 10 µM | hit rate 0.79% among 370,000;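 active = activity above about 14%, limit read from the data; passing the limit was not always enough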;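 also: 0% = DMSO wells with 35 nM protein and 100% = DMSO wells with 750 nM protein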
UUG fidelity = modulators of start codon recognition fidelity in yeast; S. cerevisiae UUG-firefly luciferase reporter, luminescence/redox ratio; AID 602363; 350,000 tested, 0.13% active; activity score, % at 18.7 µM;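 active = replicate mean at a twofold rise or more, about +100% in these data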;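 also: firefly luciferase made from a UUG start codon reports start codon fidelity; reporter light over untreated wells divided by growth signal over untreated wells; some hits fall short of that in this replicate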
ERp5 inh = inhibitors of human ERp5; Q15084; ERp5 insulin aggregation, absorbance 650 nm, 90 min; inhibition, % at 9.99 µM; hit rate 0.05% among 350,000; AID 651711;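 active = mean replicate inhibition above about 25%, with every replicate also reaching it, limit read from the data, passing the limit was not always enough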
INS-1E GSIS act = GLuc luminescence reporter in INS-1E cells, primary screen for activators of glucose-dependent secretion of insulin | hit rate 0.61% among 370,000 | AID 743287 | INS-1E GLuc reporter insulin secretion, 2-3 h | activation, % at 16.6 µM;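 active = lowest replicate activation of at least 40%, so every replicate reaches that level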;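 also: 0% = median of neutral control wells and 100% = median of IBMX positive control wells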
PDI turbidity = blocks human protein disulfide isomerase activity | P07237 | PDI insulin aggregation turbidity, A650, 90 min | inhibition, % at 10 µM | hit rate 0.052% among 350,000;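 active = mean inhibition across replicates of 30% or more, whatever share of single replicates reach that level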
SMARCA2 activ = increases SMARCA2 function in MMTV reporter cells. MG213 cells, MMTV-luciferase reporter, dexamethasone, overnight. activation, % at 9.1 µM. hit rate 1% among 370,000. AID 652017; in the data active = activation above about 7.8%;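 also: 0% = vehicle wells and 100% = reference activator wells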
NR1D1 mod conf = confirmation of modulators of human Rev-erb alpha DNA binding. shares compounds with NR1D1 modulator. hit rate 61% among 3,000. activation, % at 25 µM. Rev-erb alpha FITC-DNA binding, fluorescence polarization, 90 min;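 active = activation at or above a set limit, or at least 3 SD above the negative control mean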;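 also: 0% = 35 nM protein with DMSO and 100% = 750 nM protein high control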
RORg DNA counter = affects RORgamma DNA binding in a Rev-erb alpha counter-screen; purified RORgamma protein-FITC-DNA binding, fluorescence polarization; hit rate 8% among 910; IC50, µM; AID 1259320; shares compounds with NR1D1 modulator;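 active = Compounds whose fitted half-maximal concentration for disrupting protein-DNA binding is below 10 micromolar; the record names Rev-erb in its text, so the target is in doubt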
Starred values were filed as active, the others as inactive; / = no result given. A selection: hits, their analogues and other compounds. The true share with any hit is near 2.1%.

SMILES	NR1D1 modulator	UUG fidelity	ERp5 inh	INS-1E GSIS act	PDI turbidity	SMARCA2 activ	NR1D1 mod conf	others
Cc1cccc(-n2c(SCN3C(=O)c4ccccc4C3=O)nc3ccccc3c2=O)c1	17	/	7	10	/	0	/
CN(C)c1ccc(/C=C(/C(=O)c2ccc(Cl)cc2Cl)n2cncn2)cc1	21*	/	/	-17	-8	-4	18*
O=C(Nc1nc2c(Br)cccc2s1)c1ccc2c(c1)OCCO2	-2	/	/	/	/	/	/
Cc1nc2ccc3nc(NC(=O)c4ccc5c(c4)OCCO5)sc3c2s1	78*	-11	/	38	0	-2	39*	RORg DNA counter=>40
Cc1cnc(NC(=O)c2ccc3c(c2)OCCO3)s1	4	-77	4	2	-7	-3	/
Cc1nc2c(ccc3nc(NC(=O)c4ccc5c(c4)OCCO5)sc32)s1	56*	/	/	/	9	8	27*
CCS(=O)(=O)N1CC2(C1)[C@H](c1ccccc1)[C@@H](CO)N2C(=O)C1CC1	/	/	8	3	/	/	/
CC(C)CNC(=O)C1(C)CCCCCN1Cc1ccccc1-c1ccccc1 (stereo not drawn)	20*	-8	0	/	-6	-2	7
CC(=O)N1[C@@H]2c3ccc(-c4ccccc4)c(=O)n3C[C@H]1[C@H](CO)[C@H]2C(=O)NCC1CC1	/	/	-2	13	/	/	/
Cc1cccc(NC(=O)c2cc(NC(=O)c3ccccc3)ccc2N2CCCCC2)c1	34*	-13	/	/	8	-2	1
Cc1cccc(NC(=O)c2cc(NC(=O)c3ccco3)ccc2N2CCCCC2)c1	10	-12	7	6	1	/	/
COc1ccc(NC(=O)N(C)C[C@@H]2Oc3ncc(C#C[C@@H](C)O)cc3C(=O)N([C@H](C)CO)C[C@H]2C)cc1	/	-17	11	25	/	/	/
CCCNC(=O)N1CC2(C1)CN(Cc1ccccn1)[C@H](CO)c1c2c2ccc(OC)cc2n1C	/	/	-2	12	/	/	/
CCCCn1c(SC(C)C(=O)NCC2CCCO2)nc2cc(C(=O)OC)ccc2c1=O (stereo not drawn)	40*	-2	3	3	14	3	32*	RORg DNA counter=>40
COC(=O)[C@H]1[C@H](CO)[C@H]2Cn3c(ccc(C4=CCCC4)c3=O)[C@H]2N1C(=O)C1CC1	/	17	0	4	/	/	/
COc1ccc(C2CC(c3ccc(Cl)c(Cl)c3)Nc3nc(N)nn32)cc1 (stereo not drawn)	31*	-21	-1	1	/	2	17*
O=C(O)c1cccc(Nc2nc(-c3ccc([N+](=O)[O-])cc3)nc3ccccc23)c1	5	-21	-1	5	-2	-5	/
COc1ccccc1Nc1nc(-c2ccccc2O)nc2ccccc12	11	/	-6	3	2	0	/
O=[N+]([O-])c1ccc(-c2nc(Nc3cccc(O)c3)c3ccccc3n2)cc1	28*	-11	4	12	6	-6	3
COc1ccc(OC)c(Nc2nc(-c3ccccc3O)nc3ccccc23)c1	327*	/	0	6	-13	3	224*	RORg DNA counter=>40
COc1cccc(Nc2nc(-c3ccccc3O)nc3ccccc23)c1	155*	-13	-2	-10	-5	-2	96*	RORg DNA counter=>40
C[C@@H]1CN([C@@H](C)CO)C(=O)c2cc(NS(=O)(=O)c3ccc(F)cc3)ccc2O[C@@H]1CN(C)C(=O)Nc1ccc(F)cc1	/	5	-5	-2	/	/	/
CCCNC(=O)C[C@H]1CC[C@@H]2[C@@H](COc3ccc(NC(=O)c4cccs4)cc3C(=O)N2C)O1	/	-10	-5	-6	/	/	/
C[C@H](CO)N1C[C@H](C)[C@@H](CN(C)C(=O)C2CCOCC2)Oc2ncc(C3=CCCC3)cc2C1=O	/	5	4	-8	/	/	/
CCNC(=O)[C@@H]1[C@@H](CO)[C@@H]2Cn3c(ccc(-c4cccc(OC)c4)c3=O)[C@@H]2N1Cc1nccs1	/	7	-4	3	/	/	/

Entries shown so far containing two or more sulfur atoms, in the order listed:
SMILES	NR1D1 modulator	UUG fidelity	ERp5 inh	INS-1E GSIS act	PDI turbidity	SMARCA2 activ	NR1D1 mod conf	others
Cc1nc2ccc3nc(NC(=O)c4ccc5c(c4)OCCO5)sc3c2s1	78*	-11	/	38	0	-2	39*	RORg DNA counter=>40
Cc1nc2c(ccc3nc(NC(=O)c4ccc5c(c4)OCCO5)sc32)s1	56*	/	/	/	9	8	27*

(list continues)
SMILES	NR1D1 modulator	UUG fidelity	ERp5 inh	INS-1E GSIS act	PDI turbidity	SMARCA2 activ	NR1D1 mod conf	others
CCOc1ccc2c(c1)nc(SCC(=O)c1cccs1)n2C	0	-20	-15	-3	-1	2	/
CCOc1ccc2c(c1)nc(SCC(=O)c1ccc(Br)s1)n2C	25*	-24	/	-19	-2	1	14
COc1ccc(C)cc1NC(=O)c1sc2ncn(CC(=O)N3CCCCC3)c(=O)c2c1C	29*	-22	0	2	2	-2	24*
COc1cc(NC(=O)c2sc3ncn(CC(=O)N4CCCCC4)c(=O)c3c2C)cc(OC)c1OC	-4	17	-6	-12	-5	-2	/
COc1ccc2cc(C#N)c(Nc3cccc(F)c3)nc2c1	55*	/	4	-3	-5	-4	42*	RORg DNA counter=>40
O=C(C[C@@H]1CC[C@H]2[C@@H](COC[C@H](O)CN2C(=O)c2cccnc2)O1)NCc1ccc(-c2ccccc2)cc1	/	-20	-8	3	/	/	/
Cc1nc(C(=O)Nc2ccccc2Cl)cc2c1[nH]c1ccccc12	21*	-9	/	/	-19	-1	8
COc1ccc(NC(=O)c2cc3c([nH]c4ccccc43)c(C)n2)cc1	2	-15	-4	3	9	0	/
CCc1ccccc1NC(=O)c1nnn(CC(=O)Nc2cccc(C)c2)c1N	4	-8	-9	/	-2	2	/
CCc1ccccc1NC(=O)c1nnn(CC(=O)Nc2cccc(C)c2C)c1N	35*	-24	/	/	11	-3	42*
O=C(O)C[C@@H]1C=C[C@H](NC(=O)c2ccncc2)[C@@H](CO)O1	/	-24	1	6	/	/	/
O=[N+]([O-])c1cnn(-c2nc(-c3ccccc3)cc(C(F)(F)F)n2)c1	-6	-14	-8	-2	-15	1	/
O=[N+]([O-])c1ccc(O)c(-c2cc(C(F)(F)F)nc(-c3ccccc3)n2)c1	133*	-10	5	-3	-2	-8	159*	RORg DNA counter=8*
CCN(CC)C(=O)CSc1nc(N)c(C#N)c(-c2cccs2)c1C#N	33*	-3	/	/	-2	6	33*	RORg DNA counter=>40
Cc1ccccc1NC(=O)CSc1nc(N)c(C#N)c(-c2cccs2)c1C#N	126*	-10	/	-34	-10	0	95*
COc1ccc(CNC(=O)CSc2nc(-c3ccccc3)cc(-c3cccs3)c2C#N)cc1	9	-12	/	/	-5	-5	/
COc1ccc(CCNC(=O)CSc2nc(N)c(C#N)c(-c3cccs3)c2C#N)cc1OC	37*	-6	/	-10	1	-3	23*
Cc1ccc(Cl)cc1N1CCN(Cc2nc3c(c(=O)[nH]c(=O)n3C)n2CCc2ccccc2)CC1	2	-3	/	/	2	-1	/
Cc1ccc(Cl)cc1N1CCN(Cc2nc3c(c(=O)[nH]c(=O)n3C)n2Cc2ccccc2F)CC1	29*	9	1	-1	-1	-3	19*

Filtered by structure: those above with a COOH group.
SMILES	NR1D1 modulator	UUG fidelity	ERp5 inh	INS-1E GSIS act	PDI turbidity	SMARCA2 activ	NR1D1 mod conf	others
O=C(O)c1cccc(Nc2nc(-c3ccc([N+](=O)[O-])cc3)nc3ccccc23)c1	5	-21	-1	5	-2	-5	/
O=C(O)C[C@@H]1C=C[C@H](NC(=O)c2ccncc2)[C@@H](CO)O1	/	-24	1	6	/	/	/
